Measurements as given in paper PMC2832854 (NeuroImage, 2009).

Tested on: TSPO
Assay type: in vivo, rhesus monkeys
Conditions: for VT % change: blocked vs baseline; for Specific binding (VS): difference in VT at baseline and blocked

CC[C@@H](C)N([11CH3])C(=O)c1cc2ccccc2c(-c2ccccc2Cl)n1 [[^11C]-(R)-PK 11195]
Peak plasma concentration (after blockade with PBR28 5 mg/kg i.v.): 23.4 SUV | Specific binding (VS), average (average of the four regions): 1.96 mL • cm^−3 | Peak plasma concentration (baseline): 8.82 SUV | VT (total distribution volume) (cerebellum, baseline): 2.60 mL • cm^−3 | VT (total distribution volume) (cerebellum, blocked (PBR28 5 mg/kg i.v.)): 1.38 mL • cm^−3 | VT % change (cerebellum): −45% | Specific binding (VS) (cerebellum): 1.22 mL • cm^−3 | VT (total distribution volume) (frontal cortex, baseline): 3.82 mL • cm^−3 | VT (total distribution volume) (frontal cortex, blocked (PBR28 5 mg/kg i.v.)): 1.49 mL • cm^−3 | VT % change (frontal cortex): −61% | Specific binding (VS) (frontal cortex): 2.33 mL • cm^−3 | VT (total distribution volume) (occipital cortex, baseline): 4.56 mL • cm^−3 | VT (total distribution volume) (occipital cortex, blocked (PBR28 5 mg/kg i.v.)): 1.44 mL • cm^−3 | VT % change (occipital cortex): −64% | Specific binding (VS) (occipital cortex): 3.12 mL • cm^−3 | VT (total distribution volume) (parietal cortex, baseline): 2.82 mL • cm^−3 | VT (total distribution volume) (parietal cortex, blocked (PBR28 5 mg/kg i.v.)): 1.65 mL • cm^−3 | VT % change (parietal cortex): −40% | Specific binding (VS) (parietal cortex): 1.17 mL • cm^−3

Where two headings read alike, the source gives them in different places.
